Drawing on US20100292337A1, “Polar Hydrophilic Prodrugs of Amphetamine and Other Stimulants and Processes for Making and Using the Same” (priority 2007, published 2010), this text covers Tmax for one substance.

A short description of the series: Example 13: oral pharmacokinetic study of Lys-Amp and Cit-Amp. The conditions noted are these: rat, released d-amphetamine.

In the case of “l-citrulline-d-amphetamine hydrochloride [Cit-Amp]”, the Tmax was determined as 15 min.

In general, Tmax refers to the time at which the peak concentration occurs.
